Target: Monoglyceride lipase (Homo sapiens, UniProt Q99685)
Test: Inhibition of human recombinant MAGL incubated for 5 mins followed by substrate addition by cayman fluorescence based multimode microplate reader assay

Amino acid sequences for entries named in this document (tags omitted).
UniProt Q99685, whole entry: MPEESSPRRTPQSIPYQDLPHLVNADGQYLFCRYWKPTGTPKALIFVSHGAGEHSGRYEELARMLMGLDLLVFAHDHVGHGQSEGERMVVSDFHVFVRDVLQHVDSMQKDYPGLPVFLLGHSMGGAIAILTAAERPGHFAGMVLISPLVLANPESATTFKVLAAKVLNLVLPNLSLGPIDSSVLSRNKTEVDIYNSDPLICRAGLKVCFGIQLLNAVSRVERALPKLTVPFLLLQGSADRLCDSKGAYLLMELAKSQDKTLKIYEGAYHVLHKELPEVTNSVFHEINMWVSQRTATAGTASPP

Structure (SMILES): O=C(Oc1ccc([N+](=O)[O-])cc1)N1CCN(Cc2cccc(Oc3ccccc3)c2)CC1
- IC50: 4 nM
